# From patent US8969358B2, “Buprenorphine analogs” (dated 2015)
# Chains of the proteins cited; added tags and fusions are not shown.
# UniProt P41145, whole entry: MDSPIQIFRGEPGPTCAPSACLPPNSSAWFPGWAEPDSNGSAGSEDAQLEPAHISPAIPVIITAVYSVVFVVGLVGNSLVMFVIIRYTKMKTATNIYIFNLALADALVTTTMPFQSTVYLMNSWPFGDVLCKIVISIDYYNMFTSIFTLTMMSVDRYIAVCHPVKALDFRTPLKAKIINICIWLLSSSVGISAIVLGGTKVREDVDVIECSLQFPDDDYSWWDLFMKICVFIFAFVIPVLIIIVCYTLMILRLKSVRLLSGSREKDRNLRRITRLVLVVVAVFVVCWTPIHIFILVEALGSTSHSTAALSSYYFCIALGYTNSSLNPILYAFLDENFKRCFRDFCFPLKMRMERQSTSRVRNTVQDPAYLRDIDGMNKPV
# UniProt P35372, whole entry: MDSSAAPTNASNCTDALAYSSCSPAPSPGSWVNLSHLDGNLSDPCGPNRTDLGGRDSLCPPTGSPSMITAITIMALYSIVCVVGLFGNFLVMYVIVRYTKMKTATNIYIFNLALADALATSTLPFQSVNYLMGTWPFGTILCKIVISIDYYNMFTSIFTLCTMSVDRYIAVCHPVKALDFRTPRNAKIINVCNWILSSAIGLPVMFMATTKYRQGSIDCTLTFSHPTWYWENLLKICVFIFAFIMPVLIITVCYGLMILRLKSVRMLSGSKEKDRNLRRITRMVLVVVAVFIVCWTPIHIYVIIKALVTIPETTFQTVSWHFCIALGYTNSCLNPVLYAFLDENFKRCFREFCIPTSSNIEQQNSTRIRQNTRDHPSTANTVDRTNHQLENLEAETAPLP
# Columns and labels:
# [1] = biological target: T1, κ opioid receptor (Homo sapiens (Human), UniProt P41145); experiment: κ-opioid receptor [35S]GTPγS functional assay; conditions: for pEC50 / EC50: read-out: GTPγS κ EC50; for GTPγS κ Emax: relative to the effect elicited by U69,593; for EC50: bound given in μM
# [2] = biological target: μ-opioid receptor (Homo sapiens (Human), UniProt P35372); experiment: μ-opioid receptor [35S]GTPγS functional assay; conditions: for pEC50 / EC50: read-out: GTPγS μ EC50; for GTPγS μ Emax: relative to the effect elicited by DAMGO; for EC50: bound given in μM
# [3] = biological target: δ opioid receptor (Homo sapiens (Human), UniProt P41143); experiment: δ-opioid receptor [35S]GTPγS functional assay; conditions: for pEC50 / EC50: read-out: GTPγS δ EC50; for GTPγS δ Emax: relative to the effect elicited by met-enkephalin; for EC50: bound given in μM
# [4] = biological target: T1, κ opioid receptor; experiment: κ-opioid receptor radioligand dose displacement binding assay ([3H]-U69,593); conditions: read-out: Ki κ; binding affinity
SMILES,pEC50 [1],GTPγS κ Emax [1] [%],pEC50 [2],GTPγS μ Emax [2] [%],pEC50 [3],GTPγS δ Emax [3] [%],EC50 [3] [µM],EC50 [2] [µM],EC50 [1] [µM],pKi [4]
CO[C@]12CC[C@@]3(C[C@@H]1CNS(=O)(=O)c1ccccc1)[C@H]1Cc4ccc(O)c5c4[C@@]3(CCN1CC1CC1)[C@H]2O5,8.89,17.75,9.09,34.25,–,–,–,–,–,–
COC12CC[C@@]3(C[C@@H]1CNC(=O)c1ccccc1C(=O)O)[C@H]1Cc4ccc(O)c5c4[C@@]3(CCN1CC1CC1)[C@H]2O5,8.01,40.25,8.19,23.75,8.24,76.67,–,–,–,–
CO[C@]12CC[C@@]3(C[C@@H]1CNC(=O)[C@H](CO)NC(C)=O)[C@H]1Cc4ccc(O)c5c4[C@@]3(CCN1CC1CC1)[C@H]2O5,8.58,38.00,–,–,–,0.50 ± 0.50,> 20,> 20,–,–
CO[C@]12CC[C@@]3(C[C@@H]1CNC(=O)[C@@H](N)Cc1ccc(O)cc1)[C@H]1Cc4ccc(O)c5c4[C@@]3(CCN1CC1CC1)[C@H]2O5,8.36,–,–,–,–,–,–,> 20,–,–
CO[C@]12CC[C@@]3(C[C@@H]1CNC(=O)[C@@H](N)CC(=O)O)[C@H]1Cc4ccc(O)c5c4[C@@]3(CCN1CC1CC1)[C@H]2O5,7.31,32.67,–,−1.00,7.67,38.00,–,> 20,–,–
CO[C@]12CC[C@@]3(C[C@@H]1CNC(=O)CN)[C@H]1Cc4ccc(O)c5c4[C@@]3(CCN1CC1CC1)[C@H]2O5,8.42,43.00,–,–,8.47,55.67,–,> 20,–,–
CO[C@]12CC[C@@]3(C[C@@H]1CNS(=O)(=O)C(F)(F)F)[C@H]1Cc4ccc(O)c5c4[C@@]3(CCN1CC1CC1)[C@H]2O5,8.53,28.33,8.73,39.50,–,–,–,–,–,–
CO[C@]12CC[C@@]3(C[C@@H]1CNC(=O)[C@@H](N)Cc1ccccc1)[C@H]1Cc4ccc(O)c5c4[C@@]3(CCN1CC1CC1)[C@H]2O5,9.22,49.00,–,–,–,–,> 20,> 20,–,–
CO[C@]12CC[C@@]3(C[C@@H]1CNS(C)(=O)=O)[C@H]1Cc4ccc(O)c5c4[C@@]3(CCN1CC1CC1)[C@H]2O5,–,–,8.62,12.00,–,–,–,–,> 20,–
CO[C@]12CC[C@@]3(C[C@@H]1CNS(=O)(=O)c1ccc(C)cc1)[C@H]1Cc4ccc(O)c5c4[C@@]3(CCN1CC1CC1)[C@H]2O5,8.63,20.75,8.46,12.00,–,–,–,–,–,–
CO[C@]12CC[C@@]3(C[C@@H]1CNC(=O)c1c[nH]c4ccccc14)[C@H]1Cc4ccc(O)c5c4[C@@]3(CCN1CC1CC1)[C@H]2O5,8.78,14.67,8.85,33.50,–,–,–,–,–,9.96
COC12CC[C@@]3(C[C@@H]1CNC(=O)Nc1cccc(C)c1)[C@H]1Cc4ccc(O)c5c4[C@@]3(CCN1CC1CC1)[C@H]2O5,8.79,35.00,8.89,34.75,–,–,–,–,–,–
COC12CC[C@@]3(C[C@@H]1CNC(=O)Nc1ccccc1)[C@H]1Cc4ccc(O)c5c4[C@@]3(CCN1CC1CC1)[C@H]2O5,9.03,33.00,9.28,67.67,–,–,–,–,–,–
COC12CC[C@@]3(C[C@@H]1CNC(=O)CCCCC(N)=O)[C@H]1Cc4ccc(O)c5c4[C@@]3(CCN1CC1CC1)[C@H]2O5,–,−0.33,8.33,16.25,–,–,–,–,> 20,–
CO[C@]12CC[C@@]3(C[C@@H]1CNC(=O)[C@H](Cc1ccccc1)NC(C)=O)[C@H]1Cc4ccc(O)c5c4[C@@]3(CCN1CC1CC1)[C@H]2O5,–,−1.00,7.53,9.60,–,–,–,–,> 20,–
CO[C@]12CC[C@@]3(C[C@@H]1CNC(=O)[C@@H](N)Cc1c[nH]cn1)[C@H]1Cc4ccc(O)c5c4[C@@]3(CCN1CC1CC1)[C@H]2O5,8.79,35.00,5.19,18.25,–,–,> 20,–,–,–

# pEC50, pKi: −log10 of the molar value. Like-named read-outs stand apart in the source and are kept apart here.
